# Test results: patent EP4834881A1, “QUINOLONE COMPOUNDS AND USE THEREOF” (dated 2026)
# Experiments:
# BALB/c mice [1] = assay: Atopic dermatitis model: MC903 (calcipotriol) on right ear, ear thickness; conditions: 50 mg/kg BID p.o., mean ± SEM
# Description: (§1) Experimental animals: BALB/c mice, from Guangdong Vital River Laboratory Animal Technology Co., Ltd.
# MC903 (calcipotriol) (Supplier: TargetMol, Lot No.: 235760) was applied to the right ear of mice, once a day, for 14 consecutive days.
# The animals were randomly divided into 6 groups before induction on D1. The model control group was administered with vehicle alone under the same conditions. Administration was carried out according to the following groups:
# During the experiment period, the thickness of the right ear of the mice was measured. […] The data are presented as mean ± standard error of the mean (SEM).
# BALB/c mice [2] = assay: Allergic rhinitis model: OVA sensitization and nasal challenge, number of sneezes; conditions: 5mg/kg p.o. once daily, within 10 min after the nasal challenge
# Description: as §1
# (§2) Modeling was initiated on the day of grouping, which was designated as M1. Except for the normal group, mice in all modeling groups were intraperitoneally injected with a sensitization solution of (250 µg OVA (Ovalbumin) (Supplier: Shanghai Macklin, Lot No.: C16255388) mixed with 5 mg aluminum hydroxide/mL) per mouse, while the normal control group was given an equal volume of sterile PBS solution. The injection cycle was M1, M7, and M14. Starting from M21, challenge was carried out by nasal instillation once daily for 7 consecutive days. The challenge solution was a 50 mg/mL OVA solution, and a volume of 10 µL was instilled into each nostril per time. The normal control group was not subjected to nasal instillation.
# (§3) Administration was initiated on the day of the challenge by nasal instillation, which was designated as D1, and was performed once daily for 7 consecutive days. The normal control group and the model control group were administered with vehicle alone under the same conditions:
# The number of sneezes in each group was recorded within 10 min after the nasal challenge every day during the administration period.
# BALB/c mice [3] = assay: Allergic rhinitis model: IgE assay (ELISA) in peripheral blood, nasal lavage fluid and tracheal tissue; conditions: mean ± spread
# Description: as §1, §2, §3
# Prior to necropsy, blood was collected from the eyeball. The collected mouse blood was then centrifuged at 1800 r/min at 4 °C for 15 min, and the supernatant serum was aliquoted and stored at -80 °C for testing. At the same time, nasal lavage fluid and tracheal tissues were collected. The IgE levels in the above three samples was detected using an ELISA method (Supplier: Shanghai Enzyme-linked Biotechnology Co., Ltd., Lot No.: ml1037602).
# BALB/c mice [4] = assay: Rosacea model: intradermal LL-37 in mice, erythema score; conditions: once daily, score 0-4, mean ± SEM
# Description: as §1
# The hair on the back of the mice was shaved, and the modeling area was marked on the back skin, avoiding positions with abundant subcutaneous blood vessels. LL-37 (an antimicrobial peptide used for rosacea modeling) (Supplier: QYAOBlO (ChinaPeptides), Lot No.: 20240319) solution was drawn with a microsyringe and injected intradermally along the intradermal path. The needle was withdrawn slowly after injection. The modeling continued for 5 to 7 days, with injections administered twice a day.
# Administration was initiated on the day of grouping, which was designated as D1, and was performed once daily for 7 consecutive days. The normal control group and the model control group were administered with vehicle alone under the same conditions. The changes in skin lesions at the injection site on the back of mice in each group were observed, and scores ranging from 0 to 4 were assigned based on the degree of erythema, wherein, a score of 0 indicates no erythema, a score of 1 indicates barely visible erythema, a score of 2 indicates pale erythema with blurred boundaries, a score of 3 indicates erythema with clear boundaries, and a score of 4 indicates dark erythema with clear boundaries. The administration regimen for the mouse rosacea model was as follows: […]
# BALB/c mice [5] = assay: Psoriasis model: imiquimod cream on mouse back, PASI score; conditions: 4mg/g Topical application, once daily, mean ± SEM
# Description: as §1
# The clinical severity of psoriasis was assessed using the Psoriasis Area and Severity Index (PASI) score. The PASI scoring criteria for mice are as follows:
# The hair on the back of the mice was shaved, and the application area was marked with a marker pen. Imiquimod cream (Supplier: Sichuan Mingxin Pharmaceutical, Lot No.: 24054002) was applied to the back of the mice for several consecutive days to establish a mouse model of psoriasis. Before daily application, the residual cream was removed using pure water.
# Administration was initiated on the day of grouping, which was designated as D1, and was performed once daily for 8 consecutive days. The normal control group and the model control group were administered with vehicle alone under the same conditions. Mice were scored according to the PASI (Psoriasis area and severity index). The administration regimen for the mouse psoriasis model was as follows: […]
# BALB/c mice [6] = assay: Urticaria model: anti-dinitrophenyl antibody sensitization and dinitrofluorobenzene challenge; number of wheals, serum IgE and histamine (ELISA); conditions: once daily, 6 days, mean ± SEM
# Description: Experimental animals: BALB/c mice, from Hangzhou Ziyuan Laboratory Animal Technology Co., Ltd
# After random grouping, the back of the mice was shaved in advance, with a shaving area of about 2 cm × 2 cm. Except for the normal control group, mice in the remaining groups were sensitized via tail vein injection of an anti-dinitrophenyl monoclonal antibody (Supplier: Sigma-Aldrich, Lot No.: 0000241402) (0.2 ng/mL) at a dose of 0.5 mL per mouse. After 24 h, the mice in each sensitization modeling group were challenged by topically applying 50 µL of 0.15% dinitrofluorobenzene (Supplier: Shanghai Macklin, Lot No.: C14969320) to the dorsal side of both ears. The normal control group was injected and topically applied with normal saline under the same conditions.
# The administration regimen for the mouse urticaria model was as follows (the normal control group and the model control group were administered with vehicle alone under the same conditions) (once daily):
# Mouse IgE ELISA detection kit: purchased from Shanghai Enzyme-linked Biotechnology Co., Ltd., Lot No.: ml1037602.
# Mouse histamine ELISA detection kit: purchased from Shanghai Enzyme-linked Biotechnology Co., Ltd., Lot No.: ml1001877.
# Microplate reader, manufacturer BioTek, model: Epoch.
smiles,measurement,setting,value
COc1c(-c2ccc(S(=O)(=O)N3CC(F)(F)C3)cc2)c(F)cc2c(=O)c(C(=O)O)cn(C3CC3)c12,Right Ear Thickness of Mice,BALB/c mice [1]; D2,0.19±0.03 mm
same,Right Ear Thickness of Mice,BALB/c mice [1]; D4,0.28 ± 0.04 mm
same,Right Ear Thickness of Mice,BALB/c mice [1]; D6,0.40 ± 0.04 mm
same,Right Ear Thickness of Mice,BALB/c mice [1]; D8,0.48 ± 0.04 mm
same,Right Ear Thickness of Mice,BALB/c mice [1]; D10,0.52 ± 0.04 mm
same,Right Ear Thickness of Mice,BALB/c mice [1]; D12,0.60 ± 0.04 mm
same,Right Ear Thickness of Mice,BALB/c mice [1]; D14,0.57 ± 0.02 mm
same,number of sneezes,BALB/c mice [2]; D1,2.0 number of sneezes/mouse
same,number of sneezes,BALB/c mice [2]; D2,1.4 number of sneezes/mouse
same,number of sneezes,BALB/c mice [2]; D3,14.6 number of sneezes/mouse
same,number of sneezes,BALB/c mice [2]; D4,7.8 number of sneezes/mouse
same,number of sneezes,BALB/c mice [2]; D5,9.1 number of sneezes/mouse
same,number of sneezes,BALB/c mice [2]; D6,13.0 number of sneezes/mouse
same,number of sneezes,BALB/c mice [2]; D7,10.4 number of sneezes/mouse
same,Nasal Lavage Fluid IgE Concentration,BALB/c mice [3]; nasal lavage fluid,11.0 ± 1.5 ng/mL
same,Peripheral Blood IgE Concentration,BALB/c mice [3]; serum,6.8 ± 1.5 ng/mL
same,Tracheal Tissue IgE Concentration,BALB/c mice [3]; tracheal tissue,11.9 ± 2.9 ng/mL
same,erythema score,"BALB/c mice [4]; D1, 4mg/g Topical application",1.6±0.3
same,erythema score,"BALB/c mice [4]; D1, 40mg/kg Oral",1.6±0.2
same,erythema score,"BALB/c mice [4]; D2, 4mg/g Topical application",2.7±0.2
same,erythema score,"BALB/c mice [4]; D6, 4mg/g Topical application",1.6±0.3
same,erythema score,"BALB/c mice [4]; D6, 40mg/kg Oral",1.6±0.2
same,erythema score,"BALB/c mice [4]; D7, 4mg/g Topical application",1.5±0.3
same,erythema score,"BALB/c mice [4]; D7, 40mg/kg Oral",1.5±0.3
same,PASI score,BALB/c mice [5]; D1,0
same,PASI score,BALB/c mice [5]; D2,0.5±0.3
same,PASI score,BALB/c mice [5]; D3,1.7±0.3
same,PASI score,BALB/c mice [5]; D4,2.8±0.3
same,PASI score,BALB/c mice [5]; D5,3.6±0.4
same,Histamine Level,BALB/c mice [6]; 4mg/kg Topical application,6.3 ± 1.0 ng/mL
same,IgE Level,BALB/c mice [6]; 4mg/kg Topical application,12.2 ± 2.0 µg/mL
same,Histamine Level,BALB/c mice [6]; 25mg/kg Oral,5.8 ± 1.0 ng/mL
same,IgE Level,BALB/c mice [6]; 25mg/kg Oral,11.5 ± 2.0 µg/mL
